Experimental data reported in patent US20070059272A1 (priority 2005, published 2007).

What was measured:
[1] = test system: membrane fractions of P. aeruginosa (PAO1); assay: ELISA binding to membrane fractions and solubilized membrane proteins of P. aeruginosa PAO1; parameters: species or system Pseudomonas aeruginosa; conditions: human cytokines
[2] = test system: rhlI transcription in PAO1; assay: Northern blot of rhlI gene expression in PAO1; format: cell-based, Pseudomonas aeruginosa

| Substance | binding to P. aeruginosa cell membranes [1] | rhlI transcription [2] |
| --- | --- | --- |
| IL-2: human cytokine | No binding |  |
| TNF-α: tumor necrosis factor alpha | No binding | but not |
